Antibody variant affinities, Ab-95 light chain, assay 2

The target is the same throughout: PDVDLGDISGINAS, from the HR2 region of SARS-CoV-2 spike.

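The starting antibody came from a phage panning campaign against this peptide. Library AAYL52 holds single substitutions and randomly drawn double and triple substitutions in the CDRs. In AlphaSeq, yeast of one mating type display the scFv and yeast of the other type display the target. Pairs that bind mate more often; barcode pairs of the diploids are counted by sequencing. Read counts were normalised to the haploid input and turned into Kd by a linear fit to BCL2-family pairs of known affinity, for each replicate. Mating was done three times.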

Each scFv is VH, the linker GGGGSGGGGSGGGGS, VL, as in the parent Ab-95, and differs from it in the CDRs of the light chain only.
VH: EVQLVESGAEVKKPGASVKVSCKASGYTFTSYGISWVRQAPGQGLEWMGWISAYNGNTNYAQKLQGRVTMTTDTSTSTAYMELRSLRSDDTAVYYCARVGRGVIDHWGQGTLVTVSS
VL: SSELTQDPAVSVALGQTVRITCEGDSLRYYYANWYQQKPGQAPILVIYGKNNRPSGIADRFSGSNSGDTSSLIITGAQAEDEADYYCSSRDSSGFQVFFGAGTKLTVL

Substitutions are numbered in sequence along the VL above, starting at 1 (not Kabat). Affinities are written as log10 Kd with Kd in nM; a lower number is a better binder. Replicates are averaged; those with no signal do not enter the mean. Where no diploid with the target was found in any replicate, the entry reads "no signal": below detection, most likely a poor binder, though not proof of it. In this assay the parent's reference entry averaged 2.31; its copy inside this library read 2.25.

| changes | mean, log10 nM | detected | control signals |
|---|---|---|---|
| L27P/Y30Q/K50P | 2.79 | 3/3 | 1/9 |
| K50W/S89E/R90W | 4.95 | 1/3 | 2/9 |
| P54H/R90I/D91N | no signal | 0/3 | 1/9 |
| L27S/N52S/F95P | 5.84 | 1/3 | 2/9 |
| Y29W/G94T/V97F | 2.76 | 3/3 | 2/9 |
| E23G/G49H/D91F | 3.31 | 1/3 | 0/9 |
| K50A/S55T/S89M | 3.88 | 2/3 | 2/9 |
| G49W/K50M/R90N | 4.06 | 1/3 | 0/9 |
| D25Q/N51Y/R53N | 3.81 | 3/3 | 4/9 |
| L27E/R28W/R90L | 4.47 | 1/3 | 3/9 |
| K50G/N51G/N52P | 2.89 | 3/3 | 5/9 |
| G24E/Y31I/F98D | 3.76 | 3/3 | 3/9 |
| G24V/N33W/S89L | 4.11 | 1/3 | 0/9 |
| S55Q/D91E/Q96H | no signal | 0/3 | 3/9 |
| K50S/R53Y/S89G | 2.98 | 1/3 | 2/9 |
| D25G/R53L/P54L | no signal | 0/3 | 3/9 |
| G24V/F95V/Q96W | 2.27 | 3/3 | 0/9 |
| A32E/S55D/F98V | 5.21 | 2/3 | 4/9 |
| D25R/R28N/Q96S | 2.88 | 3/3 | 2/9 |
| N33G/K50H/P54Y | 4.82 | 1/3 | 1/9 |
| Y29T/K50Y/S88C | 3.62 | 3/3 | 3/9 |
| S92I/G94A | 2.37 | 3/3 | 3/9 |
| S26N/K50T/N51K | 4.31 | 2/3 | 2/9 |
| G24R/Y31V/K50W | no signal | 0/3 | 1/9 |
| Y29T/N52M/S93N | no signal | 0/3 | 0/9 |
| G49Q/N51S/S89M | 3.84 | 1/3 | 2/9 |
| S26N/L27E/R28K | 3.72 | 3/3 | 1/9 |
| E23R/Y30I/V97M | 3.59 | 3/3 | 1/9 |
| L27N/S88A/F98V | 2.81 | 2/3 | 0/9 |
| E23Y/S88N/R90A | no signal | 0/3 | 4/9 |

Continued, with the values leading:

| mean, log10 nM | detected | control signals | changes |
|---|---|---|---|
| 2.29 | 3/3 | 5/9 | Y30N/N33P/P54C |
| 4.18 | 2/3 | 3/9 | G24K/S89E/Q96C |
| 4.18 | 3/3 | 3/9 | Y30I/S88A/Q96M |
| 4.15 | 2/3 | 3/9 | N52L/P54C |
| 3.99 | 3/3 | 1/9 | R28Q/Y29V/S93I |
| 3.40 | 1/3 | 1/9 | A32R/N33I/F95D |
| 2.56 | 3/3 | 1/9 | R28E/F95D/V97W |
| 5.63 | 2/3 | 2/9 | N52P/S93F/G94P |
| 5.16 | 1/3 | 3/9 | Y30R/Y31W/N51C |
| 5.34 | 1/3 | 2/9 | G49K/S55F/S88H |
| no signal | 0/3 | 5/9 | E23V/L27C/S93F |
| 3.25 | 2/3 | 1/9 | N51D/G94L/Q96I |
| 1.97 | 3/3 | 0/9 | Y30W/S88I/S93I |
| 4.17 | 1/3 | 1/9 | G24S/A32F/S55C |
| 3.07 | 1/3 | 2/9 | L27K/N51M/S55R |
| 3.72 | 2/3 | 2/9 | E23L/S88F/G94Y |
| 1.21 | 3/3 | 5/9 | S88M/S92A/F95A |
| 3.46 | 3/3 | 6/9 | R28Y/A32C/F95G |
| 2.84 | 3/3 | 0/9 | E23Q/F95P/V97S |
| 0.59 | 3/3 | 3/9 | Y30A/Y31Q |
| 3.86 | 2/3 | 3/9 | G24S/A32W/S93I |
| 2.00 | 3/3 | 1/9 | S89K/S92L/F95H |
| 3.93 | 1/3 | 4/9 | A32C/K50H/N51P |
| 2.73 | 3/3 | 2/9 | L27D/S89W/R90D |
| 4.80 | 2/3 | 4/9 | N51P/P54S/F98H |
| no signal | 0/3 | 2/9 | Y31W/R90P/G94K |
| 2.75 | 3/3 | 1/9 | S55M/S89N/R90I |
| 4.26 | 2/3 | 3/9 | S26C/G49C |
| no signal | 0/3 | 0/9 | Y31I/S89Y/G94K |
| 1.52 | 3/3 | 2/9 | Y29G/P54V/S93A |

Extract of 6 entries:

changes,"mean, log10 nM",detected,control signals
A32E/S55D/F98V,5.21,2/3,4/9
E23Q/F95P/V97S,2.84,3/3,0/9
E23Y/S88N/R90A,no signal,0/3,4/9
G49K/S55F/S88H,5.34,1/3,2/9
R28Y/A32C/F95G,3.46,3/3,6/9
L27D/S89W/R90D,2.73,3/3,2/9

Three control strains display no target. For library AAYL52, 28% of the pairings with them gave a signal, with a median of 3.91 and one signal in twenty below 2.90, so weak values seen in few replicates may be background. Also given: how often the same scFv was detected with the empty control strains.

The measurements come from Engelhart et al. 2022 (doi:10.1038/s41597-022-01779-4) through the FLAb antibody collection.